According to US5994378A, “Thiazolylbenzofuran derivatives and pharmaceutical compositions containing them” (Fujisawa Pharmaceutical Co., Ltd., priority 1996, dated 1999):
pIC50: −log10 of the molar value.

The compounds below were run against T1, Leukotriene D4 receptor (Homo sapiens, UniProt Q9Y271) (assay: biochemical). Conditions: not given.
T1 sequence (Q9Y271 1-337): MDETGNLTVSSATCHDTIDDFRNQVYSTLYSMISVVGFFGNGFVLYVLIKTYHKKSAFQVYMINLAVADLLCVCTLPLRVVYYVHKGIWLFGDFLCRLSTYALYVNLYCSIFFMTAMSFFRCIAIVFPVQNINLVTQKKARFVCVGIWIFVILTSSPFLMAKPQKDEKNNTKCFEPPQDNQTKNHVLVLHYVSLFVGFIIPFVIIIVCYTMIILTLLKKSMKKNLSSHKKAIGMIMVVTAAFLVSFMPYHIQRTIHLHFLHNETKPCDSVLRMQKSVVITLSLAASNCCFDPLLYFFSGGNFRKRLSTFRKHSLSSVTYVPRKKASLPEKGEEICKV
Assay type: binding

pIC50, > 8.30:
COc1cccc(COc2ccc3oc(-c4nc(C(C)(C)C)cs4)cc3c2)c1O[C@@H](C)C(=O)O

Same assay, conditions: ^3 H-Leukotriene D4 (0.3 nM), human histiocytic lymphoma U937 membranes (100 μg protein/tube), 25° C., 30 minutes

pIC50, > 8.30:
Cc1ccc2c(-c3nnn[nH]3)cn(Cc3ccc4oc(-c5nc(C(C)(C)C)cs5)cc4c3)c2c1 [Example 21, 5-{1-{[2-(4-tert-butylthiazol-2-yl)benzofuran-5-yl]methyl}-6-methylindol-3-yl}-1H-tetrazole]
Cc1cccc2c(-c3nnn[nH]3)cn(Cc3ccc4oc(-c5nc(C(C)(C)C)cs5)cc4c3)c12 [Example 22-2]
CC(C)(C)c1csc(-c2cc3cc(Cn4cc(-c5nnn[nH]5)c5cc(OCc6nnn[nH]6)ccc54)ccc3o2)n1 [Example 22-16]
COc1ccc2c(c1)c(-c1nnn[nH]1)nn2Cc1ccc2oc(-c3nc(C(C)(C)C)cs3)cc2c1 [Example 22-23, 5-{1-{[2-(4-tert-butylthiazol-2-yl)benzofuran-5-yl]methyl}-5-methoxy-1H-indazol-3-yl}-1H-tetrazole]
CC(C)(C)c1csc(-c2cc3cc(Cn4nc(-c5nnn[nH]5)c5cc(O)ccc54)ccc3o2)n1 [Example 22-24]
Cc1ccc2c(c1)c(-c1nnn[nH]1)nn2Cc1ccc2oc(-c3nc(C(C)(C)C)cs3)cc2c1 [Example 22-27]
CC(C)(C)c1csc(-c2cc3cc(Cn4cc(-c5nnn[nH]5)c5cc(OCC(=O)O)ccc54)ccc3o2)n1 [Example 28-3, 5-{1-{[2-(4-tert-butylthiazol-2-yl)benzofuran-5-yl]methyl}-5-(carboxymethoxy)indol-3-yl}-1H-tetrazole]
CC(C)(C)c1csc(-c2cc3cc(Cn4cc(-c5nnn[nH]5)c5cc(OCC(=O)N6CCCC6)ccc54)ccc3o2)n1 [Example 34-3]
CC(C)(C)c1csc(-c2cc3cc(Cn4cc(-c5nnn[nH]5)c5cc(OCC(=O)N6CCOCC6)ccc54)ccc3o2)n1 [Example 34-5]
CC(C)(C)c1csc(-c2cc3cc(Cn4cc(-c5nnn[nH]5)c5cc(OCC(=O)N6CCN(C7CCCCC7)CC6)ccc54)ccc3o2)n1 [Example 34-8]
CC(C)(C)c1csc(-c2cc3cc(Cn4nc(-c5nnn[nH]5)c5cc(OCC(N)=O)ccc54)ccc3o2)n1 [Example 34-10]
CNC(=O)COc1ccc2c(c1)c(-c1nnn[nH]1)nn2Cc1ccc2oc(-c3nc(C(C)(C)C)cs3)cc2c1 [Example 34-11]
